{"source": "paper PMC5381194", "about": "“On-chip in vitro cell-network pre-clinical cardiac toxicity using spatiotemporal human cardiomyocyte measurement on a chip” (Scientific Reports, 2014)", "system": "human embryonic stem cell-derived cardiomyocyte cluster (hES-CMC)", "experiment": "On-chip MEA field potential recording of hCM clusters (temporal FPD and STVFPD)", "settings": "10 μM (Ref. dose ca. 10^2 × CMAX), ratio against the control, mean ± S.E."}
{"compound": "NC(N)=Nc1nc(CSCCC(N)=NS(N)(=O)=O)cs1", "note": "[Famotidine]", "values": [{"measurement": "FPD (ratio)", "value": "1.02 ± 0.02", "unit": "ratio"}, {"measurement": "STVFPD (ratio)", "value": "1.03 ± 0.09", "unit": "ratio"}]}
